Screening data as filed in PubChem BioAssay.
Rows were chosen to be rich in hits. Some 16% of all compounds tested hit in one or more screens of this group.
uPA generation – blocks generation of uPA at the cell surface; cell surface uPA generation assay, qHTS; Potency, µM (top dose mostly 38.3 µM), actives largely listed as inhibitors; 0.31% of 330,000 active; active means well fitted inhibition curve with a large enough effect; inconclusive means small, poorly fitted or top-dose-only effect; inactive means no such curve, though single readings can be large or run the other way; tested in mouse RAW 264.7 cells; further: nearly all actives have a fitted effect of over 55% in size
TDP1 block – TDP1 (human) enzyme inhibition; Q9NUW8; recombinant TDP1, AlphaScreen DNA substrate cleavage; Potency, µM (highest dose often 130 µM), actives largely listed as inhibitors; 0.28% of 350,000 active; AID 485290; further: nearly all actives have a fitted effect of over 40% in size
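Recombinant human Tdp1 (E. coli-expressed, 1 nM final) preincubated with compounds 15 min at room temperature, then 5'-biotin/3'-phosphotyrosine-FITC DNA substrate (15 nM final) added for 5 min. AlphaScreen beads (10 ug/ml final) added 10 min; cleavage lowers signal.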
DT40 TDP1 no CPT – qHTS for Inhibitors of human tyrosyl-DNA phosphodiesterase 1 (TDP1): qHTS in cells in absence of CPT; Potency, µM (doses to about 46.2 µM), hits mostly inhibitors; 15% of 420,000 active; AID 686978, 2013; DT40 Tdp1-/- hTDP1 cells, no CPT, ATP luminescence, 48 h; further: nearly all actives have a fitted effect of over 55% in size
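Stably hTDP1-transfected Tdp1-null chicken DT40 cells were treated with library compounds minus camptothecin and grown for at least 48 hr at 37 °C, after which cellular ATP was quantified by luminescence.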
TDP1 cell CPT – growth inhibition of DT40 Tdp1-/-;hTDP1 cells with camptothecin (screen for TDP1 inhibitors); 12% of 420,000 active; Potency, µM (titrated, usually from 46.2 µM), most hits filed as inhibitors; chicken DT40 Tdp1-/-;hTDP1 cells + 20 nM CPT, ATP luminescence, 48 h; further: nearly all actives have a fitted effect of over 55% in size
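Chicken DT40 Tdp1-/- cells stably complemented with human TDP1 were seeded at 400 cells/well in medium containing 20 nM camptothecin, exposed to pin-transferred compounds, and grown at 37 °C for at least 48 hr. Viability was read as ATP luminescence.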
miR-21 reporter – raises the signal of a miR-21 reporter. HeLa miR-21 FLuc reporter, luciferase, 48 h. 340,000 tested, under 10 active. Potency, µM (highest dose often 38.3 µM); active = well fitted rising curve with a large enough effect; inconclusive = small, poorly fitted or top-dose-only effect; inactive = no such curve, though single readings can be large or run the other way;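 note: miR-21 action dims this reporter so a rising signal means less miR-21 action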
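HeLa miR-21-FLuc reporter line, endogenous miR-21; 2000 cells/well in DMEM/10% FBS; compound titration up to ~40uM final, 48 h, 37 degree Celsius; luciferase detection reagent, 15 min lysis, CCD luminescence.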
Hits are given with their value; - = inactive; ? = inconclusive; . = no result given; [ ] = dose if it differs, or a comment. Unless noted, the call rests on the fitted dose curve; in most records, active means well fitted curve in the direction sought with a large enough effect; inconclusive means small, poorly fitted or top-dose-only effect, or another doubt; inactive means no such curve, though single readings can be large; an effect the other way counts as inactive or inconclusive.

SMILES	uPA generation	TDP1 block	DT40 TDP1 no CPT	TDP1 cell CPT	miR-21 reporter
COc1cc(OC)cc(-c2c(-c3cccs3)c3cc(-c4ccn[nH]4)ccc3n2C)c1	-	-	16µM	?	.
COc1cc(OC)cc(-c2c(-c3cccs3)c3cc(-c4ccc(N(C)C)nc4)ccc3n2C)c1	-	-	21µM	23µM	.
COc1cc(F)cc(-c2ccc3c(c2)c(-c2cccs2)c(-c2cc(OC)cc(OC)c2)n3C)c1	-	-	23µM	18µM	.
CC(NC(=O)c1ccccc1NS(=O)(=O)c1ccc(CCC(=O)O)cc1)c1ccccc1 (configuration not stated)	-	-	-	-	-
COc1ccc(-n2cnnc2SCC(=O)Nc2cccnc2Cl)cc1	-	-	-	-	-
CC(=O)NS(=O)(=O)c1ccc(NS(=O)(=O)c2ccc(F)cc2)cc1	-	-	-	-	-
COc1ccc(CN2C(=O)Cc3c2nc(N)c2c(N)nc(N4CCOCC4)c(C#N)c32)cc1	-	.	21µM	15µM	-
COCCN1C(=O)Cc2c1nc(N)c1c(N)nc(N3CCN(c4ccc(F)cc4)CC3)c(C#N)c21	-	-	2.1µM	8.2µM	-
CCC1Cc2c(nc(N)c3c(N)nc(N4CCOCC4)c(C#N)c23)O1 (configuration not stated)	-	-	?	?	-
Cc1cc(C)c(C#N)c(N2CCN(c3ccccc3F)CC2)n1	-	-	-	-	-
COCC(C)N1C(=O)Cc2c1nc(N)c1c(N)nc(N3CCN(c4ccccc4F)CC3)c(C#N)c21 (configuration not stated)	-	-	26µM	?	-
Oc1ccc(O)c(/C(=N/Nc2ccccc2)c2ccccc2)c1	.	.	.	.	-
O=C(O)c1cc(O)ccc1NC(=O)C1CCCO1 (configuration not stated)	-	.	-	-	-
Clc1ccc(-c2nnc3c4ccccc4nc(N4CCOCC4)n23)cc1Cl	-	-	10µM	18µM	-
CC(C)(C)c1ccc(S(=O)(=O)N2CCC(c3ccncc3)CC2)cc1	.	-	8.2µM	13µM	?
Cc1ccc(S(=O)(=O)N2CCC(c3ccncc3)CC2)c(C)c1	.	-	10µM	21µM	-
COc1ccc(S(=O)(=O)N2CCC(c3ccncc3)CC2)cc1Cl	.	-	?	?	-
CC(=O)Nc1ccc(S(=O)(=O)N2CCC(c3ccncc3)CC2)cc1	.	-	2.6µM	5.2µM	-
NS(=O)(=O)c1ccc(S(=O)(=O)N2CCCC(c3ccccc3)C2)cc1 (configuration not stated)	.	.	23µM	?	.
Cc1ccc(S(=O)(=O)N2CCN(C)CC2)c(C)c1	.	-	-	-	-
COc1ccc(OCC(=O)NNc2nc3ccccc3s2)cc1	-	-	-	-	-
CC(C)Cc1ccc(S(=O)(=O)N2CCCC2)cc1	.	-	?	?	-
O=S(=O)(c1ccccc1)N1CCC(c2ccncc2)CC1	.	-	21µM	-	-
CC(C)Cc1ccc(S(=O)(=O)N2CCC(c3ccncc3)CC2)cc1	.	-	7.3µM	9.2µM	?
O=S(=O)(c1ccc(Cl)cc1)N1CCC(c2ccncc2)CC1	.	-	?	?	-
SMILES	uPA generation	TDP1 block	DT40 TDP1 no CPT	TDP1 cell CPT	miR-21 reporter
CC(C)(C)c1ccc(C(=O)NCc2ccc(Cl)cc2)cc1	-	-	-	-	-
CCc1ccc(NC(=O)C(=O)NCCN2CCN(C(=O)c3ccc(OC)cc3)CC2)cc1	.	.	13µM	?	.
CC(C)(C)c1ccc(C(=O)N2CCN(CCNC(=O)C(=O)NCc3ccc(Cl)cc3)CC2)cc1	-	-	21µM	15µM	-
COc1ccc(NC(=O)C(=O)NCCN2CCN(C(=O)c3ccc(C)cc3)CC2)cc1	-	-[0.0935 µM]	-	-	-
COc1cccc(CN2CCNC(=O)C2CC(=O)NCCOc2cccnc2)c1 (configuration not stated)	-	-	-	-	-
OCC[C@@H]1C[C@H](O)[C@@H](O)[C@]2(CCc3ccccc3CO2)O1	-	.	-	-	-
CCCn1c2c(c(O)c(C(=O)Nc3nc(C)cs3)c1=O)CCCC2	.	-	.	.	-
CCCn1c2c(c(O)c(C(=O)Nc3nccs3)c1=O)CCCC2	-	-	?	-	-
CC(C)Cn1c2c(c(O)c(C(=O)Nc3nccs3)c1=O)CCCC2	-	-	?	16µM	-
CCOC(=O)Cc1csc(NC(=O)c2c(O)c3c(n(CC(C)C)c2=O)CCCC3)n1	-	-	?	21µM	-
O=C(c1ccc(Cl)c(S(=O)(=O)N2CCCCCC2)c1)N1CCOCC1	-	-	-	-	-
O=c1oc2ccc3ccccc3c2cc1-c1nnc(Nc2ccc(Cl)cc2Cl)s1	.	-[12.3 µM]	-	-	-
CCn1c(CNC(C)=O)nnc1SCC(=O)c1ccc(Br)cc1	-	-	-	-	-
CCN(CC)C(=S)SCC(=O)c1ccc(Br)cc1	-	-	23µM	-	-
COc1ccc(NC(=O)C2CCCN(S(=O)(=O)c3ccc4c(c3)CCCC(=O)N4)C2)c(OC)c1 (configuration not stated)	.	-	.	.	-
COc1ccc(NC(=O)C2CCCN2S(=O)(=O)c2ccc3c(c2)CCC(=O)N3)c(OC)c1 (configuration not stated)	-	-	16µM	13µM	-
O=C1c2sc3nc4c(c(=O)n3c2C(=O)N1c1ccccc1)CCC4	-	-	6.5µM	4.1µM	-
Cc1ccc(N2C(=O)c3sc4nnc(C)c(=O)n4c3C2=O)cc1	.	-	-	-	-
O=c1/c(=C\c2cccnc2)sc2nc3ccccc3n12	-	-	?	-	-
Cc1ccccc1N1C(=O)c2sc3nc4c(c(=O)n3c2C1=O)CCC4	-	-	18µM	5.8µM	-
O=C1c2sc3nc4ccccc4n3c2C(=O)N1c1ccccc1Cl	-	-	7.3µM	2.6µM	-
NNC(=O)c1ccc(Cn2cc(Br)c(N)n2)cc1	-	-	-	-	-
CCC1CCCCN1Cc1ccc(CNS(=O)(=O)c2ccc3c(c2)oc(=O)n3C)o1 (configuration not stated)	-	-	-	-	-
O=C1Nc2ccccc2N=C(c2ccc3c(c2)OCO3)C1N(C(=O)c1ccc2ccccc2c1)C1CC1 (configuration not stated)	.	.	21µM	16µM	.
O=C1Nc2ccccc2N=C(c2ccc3c(c2)OCO3)C1N(C(=O)c1ccnc2ccccc12)c1ccccc1 (configuration not stated)	.	.	18µM	21µM	.
Cc1cnc(C(=O)N(c2ccc(N3CCOCC3)cc2)C2C(=O)Nc3ccccc3N=C2c2ccc(F)cc2)cn1 (configuration not stated)	.	.	?	-	.
CC(=O)N1N=C(c2cccc(Cl)c2)OC1c1cccc([N+](=O)[O-])c1 (configuration not stated)	-	-	21µM	?	-
C/C(=N\NC(=O)c1ccccc1F)c1ccc2c(c1)Nc1ccccc1S2	-	-	23µM	5.8µM	-
